Measurements from patent US6514942B1, “Methods and compositions for stimulating T-lymphocytes” (The Board of Regents, The University of Texas System, priority 1995, dated 2003).
Marks after values point to notes of the source that are not given here.

System: CTL-16
Experiment: Recognition of HER-2 peptides by ovarian tumor associated CTL (lysis of peptide-sensitized targets)
Format: cell-based, human

For `CC[C@H](C)[C@H](NC(=O)[C@@H](N)CCCCN)C(=O)N[C@@H](Cc1ccccc1)C(=O)NCC(=O)N[C@@H](CO)C(=O)N[C@@H](CC(C)C)C(=O)N[C@@H](C)C(=O)N[C@@H](Cc1ccccc1)C(=O)N[C@@H](CC(C)C)C(=O)O` [Peptide E75], the “% of C85 (target lysis by CTL in the presence of peptide as % of positive control C85)” value was >10.00^c % of C85.
